In publication PMC9867944 (Bioscience Reports, 2023):

Molecular target: T1, anti-PD-1 Nb C12-Fc (Bactrian camel)
T1 construct: VHH C12 selected from a naive Bactrian camel phage display library; Nb C12 fused to the human IgG1 Fc fragment in plasmid pCZN1; about 40 kDa on SDS-PAGE; also called anti-PD-1 Nb-Fc; PD-1 C12 Nb-Fc
Test: SPR; Biacore 8K; anti-PD-1 Nb-Fc (10 ug/ml) immobilised on CM5 chip to 300 RU; human PD-1 antigen injected from 100 to 0.391 nM; association 120 s, dissociation 300 s
Conditions: both partners purified

B1: human PD-1 protein (Acro biosystems) (receptor, UniProt Q15116 25-170, looked up)
chain: LDSPDRPWNPPTFSPALLVVTEGDNATFTCSFSNTSESFVLNWYRMSPSNQTDKLAAFPEDRSQPGQDCRFRVTQLPNGRDFHMSVVRARRNDSGTYLCGAISLAPKAQIKESLRAELRVTERRAEVPTAHPSPSPRPAGQFQTLV
notes: programmed death protein 1 (PD-1), human, recombinant protein; probably the extracellular domain; also called human PD-1 antigen; hPD-1; source: bought: Acro biosystems
  Kd: 6.63 nM
